In general, IC50 refers to the concentration needed to halve the response being measured.

Sequences of proteins named here, by UniProt entry; tags and fusion partners are left off.
UniProt P25103, whole entry: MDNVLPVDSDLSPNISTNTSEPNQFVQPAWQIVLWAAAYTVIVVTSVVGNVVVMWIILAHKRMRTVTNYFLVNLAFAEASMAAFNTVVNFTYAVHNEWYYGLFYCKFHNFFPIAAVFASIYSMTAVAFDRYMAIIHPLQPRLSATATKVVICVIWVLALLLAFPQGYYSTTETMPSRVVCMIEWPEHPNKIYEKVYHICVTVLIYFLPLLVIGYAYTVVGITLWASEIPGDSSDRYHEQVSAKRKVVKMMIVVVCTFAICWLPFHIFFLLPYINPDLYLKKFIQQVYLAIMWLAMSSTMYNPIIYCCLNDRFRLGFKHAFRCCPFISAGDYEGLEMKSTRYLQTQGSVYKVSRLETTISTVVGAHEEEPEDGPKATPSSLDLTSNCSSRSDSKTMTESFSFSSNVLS

For the assay, the target named is Human NK1 Receptor (Homo sapiens, UniProt P25103). Kind of assay: In Vitro Human NK1 Receptor Binding Assay ([125I]Bolton-Hunter substance P displacement, IM9 cells). The note with it: read-out: IC50 (nM) hNK1, Table 5. The method, then:
They have been evaluated in an NK1-receptor binding assay which is described below.
Human lymphoma IM9 cells were grown in RPMI 1640 culture medium supplemented with 10% fetal calf serum and 2 mM glutamine and maintained under an atmosphere of 5% CO2. Cells were passaged every 3-4 days by reseeding to a concentration of 4-8×10^6/40 ml per 175 cm^2 flask. Cells were harvested for experiments by centrifugation at 1000 g for 3 min. Pelleted cells were washed once by resuspension into assay buffer (50 mM Tris HCl pH 7.4, 3 mM MnCl2, 0.02% BSA, […] bacitracin, […] chymostatin, 2 mM phosphoramidon, […] leupeptin) and repeating the centrifugation step before resuspending at a concentration of 2.5×10^6 cells/mL assay buffer. Cells ([…]) were incubated with [^125I]Bolton-Hunter substance P (0.05-0.1 nM) in the presence and absence of varying concentrations of test compounds for 50 min at 21° C. Non-specific binding (10% of the total binding observed under these conditions) was defined by […] [Sar^9, Met(02)^11] substance P. Reactions were terminated by rapid filtration under vacuum onto GF\C filters presoaked in 0.2% PEI for 1-2 h, using a Brandel cell harvester. Filters were washed with 6×1 ml ice-cold Tris HCl (50 mM, pH 7.4) and radioactivity bound determined using a gamma couter. Results were analyzed using iterative curve fitting procedures in RS1 or Graphpad Inplot.

For `CC(NC(=O)C(Cc1c[nH]c2ccccc12)NCC=Cc1ccco1)c1ccccc1` (centres unmarked), the concentration for half-maximal inhibition (IC50) is over 10000 nM. As for `CNS(=O)(=O)c1cc(CNC(Cc2c[nH]c3ccccc23)C(=O)NC(C)c2ccccc2)ccc1Cl` (centres unmarked), the figure is 490 nM.

The values above are taken from US6472418B1, “Non-peptide NK1 receptors antagonists” (Warner-Lambert Company, priority 1998, dated 2002).
